Laboratory results from ChEMBL document CHEMBL1155460, “Prediction of acetylcholinesterase inhibitors and characterization of correlative molecular descriptors by machine learning methods” (Eur J Med Chem, 2010).

Chains of the proteins cited; added tags and fusions are not shown. Lines headed by an entry give the natural chain unless they say otherwise; changes in a name come on top.
UniProt P22303: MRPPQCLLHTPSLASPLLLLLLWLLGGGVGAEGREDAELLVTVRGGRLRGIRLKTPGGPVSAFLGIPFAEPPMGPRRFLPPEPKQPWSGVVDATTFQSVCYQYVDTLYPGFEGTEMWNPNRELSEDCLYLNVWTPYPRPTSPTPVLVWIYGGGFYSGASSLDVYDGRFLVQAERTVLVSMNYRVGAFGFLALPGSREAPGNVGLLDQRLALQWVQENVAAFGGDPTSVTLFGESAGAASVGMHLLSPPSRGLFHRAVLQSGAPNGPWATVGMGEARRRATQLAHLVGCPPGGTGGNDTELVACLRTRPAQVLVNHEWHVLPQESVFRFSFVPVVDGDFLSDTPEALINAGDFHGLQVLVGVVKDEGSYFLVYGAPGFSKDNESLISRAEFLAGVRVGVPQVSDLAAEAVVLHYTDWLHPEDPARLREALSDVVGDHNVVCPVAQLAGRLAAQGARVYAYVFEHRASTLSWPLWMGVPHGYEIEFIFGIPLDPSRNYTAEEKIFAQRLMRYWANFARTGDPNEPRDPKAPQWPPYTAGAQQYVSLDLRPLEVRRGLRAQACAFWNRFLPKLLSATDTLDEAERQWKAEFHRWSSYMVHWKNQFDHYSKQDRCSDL

Each molecule was assayed against Acetylcholinesterase (Homo sapiens, UniProt P22303).

First: CCN1CC[C@@]2(C)c3cc(OC(=O)NC(C)(C)C)ccc3C[C@@H]12
Second: COc1ccc(CN2CCC(CCC(=O)c3ccc4c(c3)NCCCC4)CC2)cc1
The IC50 of the first is 4.4-fold lower: 12.5 µM for the first, 55.2 µM for the second. The first is the more potent here.

Going from O=C(CCC1CCN(Cc2ccccc2F)CC1)c1ccc2c(c1)NCCCC2 to O=C(CCC1CCN(Cc2ccccc2)CC1)c1ccc2c(c1)NCCCC2 [ZANAPEZIL], the IC50 falls from 0.331 µM to 0.1 µM (3.3-fold). The second is the more potent here.

Molecule COc1ccc(CN2CCC(CCC(=O)c3ccc4c(c3)CCN4)CC2)cc1 has an IC50 of 13.3 µM.
